gsp agonist = activates gsp, the McCune-Albright syndrome mutation | Potency, µM (titrated, usually from 76.9 µM), without a hit: at the highest dose activation (cAMP increase), actives largely listed as activators | 0.13% of 340,000 active | gsp mutant cells, cAMP HTRF, 30 min; active = well fitted activation curve with a large enough effect; inconclusive = small, poorly fitted or top-dose-only effect, or another doubt; inactive = no such curve, though single readings can be large or run the other way; cell line not stated here;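 also: phosphodiesterase inhibitor Ro 20-1724 added with compounds to block cAMP breakdown; potency is read from the fitted curve at half-maximal effect; nearly all actives have a fitted effect of over 60% in size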
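Cells in DMEM/10% FBS with G418 were pretreated with compounds in DMSO plus […] (300 uM stock) for 30 min at 37C. cAMP was measured by HTRF (cAMP-d2 plus anti-cAMP antibody-K) after 30 min at room temperature.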
miR-21 FLuc = raises the signal of a miR-21 reporter | HeLa miR-21 FLuc reporter, luciferase, 48 h | 340,000 tested, under 10 active | Potency, µM (titrated, usually from 38.3 µM), inactives show at the highest dose reporter change, positive = more light; active = well fitted rising curve with a large enough effect; inconclusive = small, poorly fitted or top-dose-only effect; inactive = no such curve, though single readings can be large or run the other way;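 further: % of control where 0% means no effect; miR-21 action dims this reporter so a rising signal means less miR-21 action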
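Using DMEM plus 10% FBS, HeLa miR-21-FLuc cells are incubated with test compounds (final up to about 40uM) for 48 hours; firefly luciferase signal is then imaged following reagent-mediated lysis.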
Luc counter = Kinase-Glo luciferase inhibition (counter-screen) | Kinase-Glo luciferase, ATP luminescence, 8 min | Potency, µM (highest dose often 38.3 µM), without a hit: top-dose activity change, negative = inhibition, actives largely listed as inhibitors | 0.28% of 200,000 active; also: potency is read from the fitted curve at half-maximal effect; % is scaled to controls: 0 for no effect and ±100 for the full control effect; nearly all actives have a fitted effect of over 60% in size
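Substrate mix (final 50 mM imidazole pH 7.2, 50 mM KCl, 7 mM MgCl2, 10 uM ATP, 0.01% Tween 20, 0.05% BSA) plus pin-tool compound, then Kinase-Glo detection mix; 8 min ambient, luminescence read.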
gsp antag = antagonists of gsp mutant (McCune-Albright syndrome) | Potency, µM (series often up to 76.9 µM), without a hit: at the top dose activity change, negative = inhibition, actives largely listed as inhibitors | gsp-mutant cells, cAMP HTRF, 30 min | 0.4% of 340,000 active; calls by dose curve; cell line not stated here;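 also: intracellular cAMP measured with PDE inhibitor Ro 20-1724 present during compound exposure; potency is read from the fitted curve at half-maximal effect; % is scaled to controls: 0 for no effect and ±100 for the full control effect; nearly all actives have a fitted effect of over 65% in size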
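HTRF cAMP read-out (cAMP-d2 plus anti-cAMP antibody-K in lysis buffer, 30 min RT). Before lysis, cells are exposed to compounds with […] for 30 min at 37C in DPBS containing Ca/Mg, BSA and Tween 20.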
RXFP1 ag = agonists of human relaxin receptor RXFP1 | Q9HBX9 | HEK293T-RXFP1 cAMP TR-FRET, 30 min; response scale: percent of porcine relaxin response, buffer zero | Potency, µM (top dose mostly 57.5 µM), without a hit: at the top dose activation, actives largely listed as activators | 0.3% of 370,000 active; also: potency is read from the fitted curve at half-maximal effect; % is scaled to controls: 0 for no effect and ±100 for the full control effect; nearly all actives have a fitted effect of over 60% in size
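cAMP rise read by TR-FRET after 30 min, 37C compound exposure (up to 58 uM) in RXFP1-transfected HEK293 cells with Ro 20174 present. EC50 from Hill-equation fits, with 29 nM porcine relaxin as 100% and buffer as basal.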
RXFP1 antag = RXFP1 (human) relaxin receptor antagonism; Q9HBX9; HEK293-RXFP1, relaxin-stimulated cAMP HTRF, 30 min; hits give low values; activity change, negative = inhibition, % at 57.5 µM; 0.59% of 350,000 active; AID 1259400;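 active = activity change of -60% or lower, but not beyond a set lower limit; inconclusive = change between -60% and -40%, or beyond the set limit; inactive = change above -40%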; also: % is scaled to controls: 0 for no effect and ±100 for the full control effect
An asterisk follows results filed as active; ? = inconclusive; . = no result given; [ ] = dose if it differs, or a comment. A selection: hits, their analogues and other compounds. The true share with any hit is near 1%. Unless noted, calls follow the shape of the dose curve; as a rule, active = well fitted curve in the direction sought with a large enough effect; inconclusive = small, poorly fitted or top-dose-only effect, or another doubt; inactive = no such curve, though single readings can be large; an effect the other way counts as inactive or inconclusive.

item | structure | RXFP1 antag | gsp antag | miR-21 FLuc
1 | Cc1ccc(C(=O)N2c3ccccc3CC2C)o1 (stereo not drawn) | -5 | -11% | -56%
2 | Cc1ccc(C(=O)N2CCc3ccccc32)o1 | 2 | 1% | -35%
3 | CCOc1c(N2CCOCC2)cnn(C)c1=O | -12 | . | .
4 | CCOc1ccc(C(=O)NCCc2sc(-c3ccc(OC)c(OC)c3)nc2C)cc1 | . | . | -23%
5 | O=C(Nc1cc(-c2nc3cc(Cl)ccc3o2)ccc1Cl)c1ccco1 | . | . | -54%
6 | O=C(Nc1ccc(-c2nc3cc(Cl)ccc3c(=O)o2)cc1)c1ccco1 | -66* | 13% | -1%
7 | CN1CCN(c2ccc(NC(=O)COc3ccccc3[N+](=O)[O-])cc2)CC1 | -3 | . | -14%
8 | CC(C)C(=O)N1CCN(c2ccc(NC(=O)COc3ccccc3[N+](=O)[O-])cc2)CC1 | -22 | 28µM* | 18%
9 | Cc1ccc(C(=O)Nc2cc3ccccc3oc2=O)cc1 | 0 | 15% | 4%
10 | O=C(c1ccccc1)c1ccc(N2CCN(C(=O)c3cccc(F)c3F)CC2)c(F)c1 | -11 | 40µM* | 24%

item | RXFP1 ag | Luc counter | gsp agonist
1 | -1% | 11µM* | -46%[15.4 µM]
2 | 0% | 13µM* | -21%
3 | . | . | .
4 | 9% | . | .
5 | 10% | . | .
6 | 1% | 0% | 7%[15.4 µM]
7 | 0% | 0% | -1%[15.4 µM]
8 | 3% | 1% | 9%
9 | -1% | 8.9µM* | -22%
10 | -2% | . | ?

One compound at a time, as listed above. Values in the order: RXFP1 antag | gsp antag | miR-21 FLuc | RXFP1 ag | Luc counter | gsp agonist
O=C(Nc1ccc(-c2nc3cc(Cl)ccc3c(=O)o2)cc1)c1ccco1 as listed: -66* | 13% | -1% | 1% | 0% | 7%[15.4 µM]
Cc1ccc(C(=O)N2c3ccccc3CC2C)o1 (stereo not drawn) as listed: -5 | -11% | -56% | -1% | 11µM* | -46%[15.4 µM]

Continuation:
item | structure | RXFP1 antag | gsp antag | miR-21 FLuc
11 | O=C(c1ccc(F)cc1F)N1CCN(c2ncccn2)CC1 | -5 | 10% | 0%
12 | O=C(c1ccc(N2CCN(C(=O)c3ccc(F)cc3F)CC2)cc1)c1cccc(F)c1 | -3 | 35µM* | 24%
13 | CCOC(=O)N1CCN(c2ccc(C(=O)c3ccccc3)cc2F)CC1 | -5 | 32µM* | -15%
14 | Cc1cn([C@H]2C[C@H](F)[C@@H](CO)O2)c(=O)[nH]c1=O | -6 | . | .
15 | COc1ccc(CNC(=O)CCC2N=C3c4ccccc4N=C(SCc4ccc(F)cc4)N3C2=O)cc1 (stereo not drawn) | -11 | . | 9%
16 | Cc1[nH]cnc1-c1ccc(Cl)cc1 | 13 | . | .
17 | Cc1nc2ccccn2c1/C(O)=C1\C(=O)C(=O)N(CCCn2ccnc2)C1c1ccncc1 (stereo not drawn) | 22 | 14% | 0%
18 | CC1Cc2cc(/C(O)=C3/C(=O)C(=O)N(Cc4cccnc4)C3c3cccc(O)c3)ccc2O1 (stereo not drawn) | ? | 2% | -6%
19 | O=C1C(=O)N(CCCN2CCOCC2)C(c2ccc(F)cc2)/C1=C(\O)c1ccc2c(c1)OCCO2 (stereo not drawn) | 14 | 39% | -10%
20 | CCOc1cccc(C2/C(=C(/O)c3ccc4c(c3)CC(C)O4)C(=O)C(=O)N2CCN2CCOCC2)c1 (stereo not drawn) | 14 | 5% | -3%

item | RXFP1 ag | Luc counter | gsp agonist
11 | 1% | -2% | ?
12 | -1% | . | -1%
13 | 1% | -4% | -16%
14 | . | . | .
15 | 2% | . | .
16 | . | . | .
17 | 5% | -4% | 18µM*
18 | 26% | . | ?
19 | ? | . | 32µM*
20 | ? | . | ?

Next section:
item | structure | RXFP1 antag | gsp antag | miR-21 FLuc
21 | CCOc1cccc(C2/C(=C(/O)c3ccc4c(c3)CC(C)O4)C(=O)C(=O)N2Cc2ccncc2)c1 (stereo not drawn) | 12 | -13% | 0%
22 | CCCCOc1cccc(C2/C(=C(/O)c3ccc4c(c3)CC(C)O4)C(=O)C(=O)N2CCN2CCOCC2)c1 (stereo not drawn) | -7 | -4% | 3%
23 | CN(C)c1ccc(-c2cncnc2NCc2cccs2)cc1 | . | . | .
24 | Cc1nc(-c2cccc(NC(=O)Nc3ccc([N+](=O)[O-])cc3)c2)no1 | . | . | ?
25 | CCOCCn1c(N2CCCN(C)CC2)nc2ccccc21 | 4 | . | .
26 | Cc1cc(OCC(C)C)ccc1/C(O)=C1/C(=O)C(=O)N(Cc2cccnc2)C1c1ccncc1 (stereo not drawn) | 23 | 14% | 0%
27 | COc1cccc(C2/C(=C(/O)c3ccc4c(c3)CC(C)O4)C(=O)C(=O)N2CCCn2ccnc2)c1 (stereo not drawn) | 24 | -7% | -3%
28 | COc1cc(C2/C(=C(\O)c3ccc4c(c3)CC(C)O4)C(=O)C(=O)N2CCCn2ccnc2)cc(OC)c1OC (stereo not drawn) | -7 | 13% | 2%
29 | O=C(O)c1ccc(OCCN2CCCCC2)cc1 | 6 | . | .
30 | CC(N)=NCCCC[C@H](N)C(=O)O | . | . | .

item | RXFP1 ag | Luc counter | gsp agonist
21 | ? | . | 5µM*
22 | 28µM* | . | ?
23 | . | 0% | .
24 | 2% | . | .
25 | . | . | .
26 | ? | 3% | 5.6µM*
27 | ? | . | 13µM*
28 | 5% | . | 39%
29 | . | . | .
30 | . | 2% | .

(more compounds)
item | structure | RXFP1 antag | gsp antag | miR-21 FLuc
31 | NS(=O)(=O)c1cc2c(cc1Cl)CN(C1CCCCC1)C2=O | -15 | . | .
32 | O=C(Nc1ncc([N+](=O)[O-])s1)c1cccs1 | -7 | ? | 0%
33 | Cc1ncoc1C(=O)Nc1ncc([N+](=O)[O-])s1 | -38 | -25% | -19%
34 | CCc1ccc(OCC(=O)NNC(=O)c2cc(S(=O)(=O)N(C)C)ccc2N2CCCC2)cc1 | -114* | -1% | .
35 | O=c1[nH]c(SCc2n[nH]c(=S)n2-c2ccccc2)nc2sc3c(c12)CCC3 | -67* | 6% | -16%
36 | CNC(=O)c1c[nH]n2c(=O)c(Cc3ccccc3F)c(C)nc12 | . | 11µM* | 5%
37 | Cc1nc2c(C(=O)NCCc3ccccc3)c[nH]n2c(=O)c1Cc1ccccc1F | . | . | -8%
38 | O=c1oc2ccccc2c2c1C1O[C@](c3ccsc3)(Cc3c1ccc1ccccc31)O2 | . | . | -10%[7.66 µM]
39 | CCOc1ccc(Nc2sc(C(=O)c3cccc(OC)c3)c(N)c2S(=O)(=O)c2ccccc2)cc1 | . | . | -4%
40 | FC(F)(F)Oc1ccc(Nc2nc3ccccc3o2)cc1 | -9 | -1% | -49%

item | RXFP1 ag | Luc counter | gsp agonist
31 | . | . | .
32 | 0% | . | -19%
33 | -1% | 11µM* | -9%[15.4 µM]
34 | -1% | . | 4%[15.4 µM]
35 | 4% | 4% | 3%
36 | 1% | 0% | 15%
37 | -6% | . | .
38 | 0%[11.5 µM] | . | .
39 | 3% | . | .
40 | 0% | -5% | -8%[15.4 µM]

Taken from above:
In miR-21 FLuc, CNC(=O)c1c[nH]n2c(=O)c(Cc3ccccc3F)c(C)nc12 has 5%
In miR-21 FLuc, O=c1[nH]c(SCc2n[nH]c(=S)n2-c2ccccc2)nc2sc3c(c12)CCC3 has -16%
In RXFP1 ag, O=c1oc2ccccc2c2c1C1O[C@](c3ccsc3)(Cc3c1ccc1ccccc31)O2 has 0%[11.5 µM]
In miR-21 FLuc, Cc1ncoc1C(=O)Nc1ncc([N+](=O)[O-])s1 has -19%

(further entries)
item | structure | RXFP1 antag | gsp antag | miR-21 FLuc
41 | c1ccc(Nc2nc3ccccc3o2)cc1 | 3 | -27% | -37%
42 | O=C(/C=C/c1ccc(-c2ccccc2[N+](=O)[O-])o1)c1ccco1 | -64* | ? | -15%
43 | Cc1nn(Cc2noc(C(=O)NC(C)c3ccccc3)n2)c(C)c1Br (stereo not drawn) | . | . | 0%
44 | COc1cc(CNCCO)cc(Br)c1OCc1ccccc1Cl | -76* | 25% | 0%
45 | COc1cc(CNCCO)cc(Cl)c1OCc1ccc(Cl)cc1Cl | -36 | 8% | 1%
46 | CC(=O)c1ccc(N2CCN(CC(O)COC(c3ccccc3)c3ccccc3)CC2)cc1 (stereo not drawn) | -79* | -20% | 5%

item | RXFP1 ag | Luc counter | gsp agonist
41 | 1% | 13µM* | -1%
42 | 1% | -3% | -15%[15.4 µM]
43 | 1% | . | .
44 | 0% | -1% | -13%
45 | 2% | -3% | ?
46 | -3% | . | ?
